Results reported in ChEMBL document CHEMBL1141420, “Towards a new generation of potential antipsychotic agents combining D2 and 5-HT1A receptor activities” (J Med Chem, 2007).

Sequences of proteins named here, by UniProt entry; tags and fusion partners are left off.
UniProt P61169, whole entry: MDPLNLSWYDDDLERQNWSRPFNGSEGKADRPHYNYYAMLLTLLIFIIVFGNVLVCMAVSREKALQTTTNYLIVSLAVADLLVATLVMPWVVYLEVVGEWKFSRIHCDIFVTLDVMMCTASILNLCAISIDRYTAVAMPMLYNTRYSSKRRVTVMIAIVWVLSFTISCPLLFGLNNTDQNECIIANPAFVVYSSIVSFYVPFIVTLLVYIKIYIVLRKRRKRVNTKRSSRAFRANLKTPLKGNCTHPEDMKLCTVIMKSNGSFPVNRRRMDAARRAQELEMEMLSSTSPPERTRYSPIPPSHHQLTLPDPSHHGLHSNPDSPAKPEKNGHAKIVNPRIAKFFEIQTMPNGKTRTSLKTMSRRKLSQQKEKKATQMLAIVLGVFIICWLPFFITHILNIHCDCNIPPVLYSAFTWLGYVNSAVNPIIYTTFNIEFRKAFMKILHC

How the values were obtained:
[1] = biological target: D(2) dopamine receptor (Rattus norvegicus, UniProt P61169); test: Displacement of [3H]YM-09151-2 from rat striatum D2 receptor
[2] = test system: Rattus norvegicus; test: Ratio of ED50 for LLR induction to ED50 for normalization in ip dosed rat; format: functional
[3] = test system: Rattus norvegicus; test: Ratio of ED50 for catalepsy induction to ED50 for normalization in ip dosed rat; format: functional

Ki [1]: 3.98 nM
Compound: Fc1ccc(-c2cncc(CN3CCN(c4cccc5c4OCCO5)CC3)c2)cc1 [ADOPRAZINE]
Ratio ED50 [2]: 0.2
Ratio ED50 [3]: >28
